Results on 1 substance are retold here after patent publication US11073509B2, “Assays and methods for determining the responsiveness of an individual subject to a therapeutic agent” (Celcuity Inc., priority 2013, dated 2021).

Assay [1] has as its system Patient B1 cells (HER2 overexpressing breast cancer). Nature of the assay: CELx Pathway Shutdown test, impedance biosensor CReMS, EGF stimulation. It is filed as cell-based, human. How it is done:
(§1) A CELx Pathway Shutdown test was performed using cells from two HER2 overexpressing breast cancer patients (Patient B1 and B4), two drugs (Lapatinib and Trastuzumab) that are indicated for HER2 positive breast cancers, and human epidermal growth factor (EGF). The physiologic change of the B1 and B4 cells during the test was measured with an impedance biosensor CReMS and the output from the CReMS is recorded in FIGS. 1A and 1B. The comparison of the CELx test results and the third party clinical reference is recorded in FIG. 1C. This example illustrates how the CELx test is able to predict the responsiveness that a patient will have to different targeted pathway drugs by using a CReMS to measure the physiological change in a patient's cells continuously over a period of several hours. This example also illustrates how the presence of a genetic biomarker, in this case an overexpressing HER2 gene, is not a sufficient condition to predict efficacy of the drug.
(§2) CReM and microplate: A 4″×6″, 96-well impedance microplate was placed into a Roche Applied Science (Indianapolis, Ind.) xCELLigence SP impedance biosensor designed to maintain constant voltage while measuring simultaneously the impedance of every well. The change in impedance for a particular well is proportional to the number of cells and type of attachment the cells have with the impedance microplate. Changes in impedance indicate a response to perturbation of these small cell populations.
(§3) Cells: Cells from Patient B1 and B4 were utilized. The cells were received at −80° C., thawed and cultured according to standard human epithelial cell handling procedure, typically in T75 culture flasks containing buffered media with serum at 37° C., 5% CO2. Prior to addition to the impedance microplate, the cells were removed from their growth container with versene, counted, and re-suspended in media without serum or other growth factors. […]

The subject of assay [2] is Patient B4 cells (HER2 overexpressing breast cancer). Described as above. It is filed as cell-based, human. As for the experimental part: as §1, §2, §3
For assay [3] the following is noted: cited from earlier work.

Like-named read-outs stand apart in the source and are kept apart here.

As for “trastuzumab: monoclonal antibody that interferes with the HER2/neu receptor”, the entries for the “CELx test prediction of patient response” value in assay [1] (Patient B1) and in assay [2] were “will not respond” and “would respond”, respectively. Also, in assay [1] (Patient B1 cells, pathway stimulated with receptor ligand (EGF), vs stimulated cells without drug), the “change (decrease) of cell index of test cells after drug” value was “less than 5%”. For the same substance, the “patient responsiveness recorded by clinical reference standard” value is given as “unresponsive” in assay [3] (Patient B1) and “responsive” in assay [3] (Patient B4).
